Data: patent US6630507B1, “Cannabinoids as antioxidants and neuroprotectants” (The United States of America as represented by the …, priority 1998, dated 2003)

The chains behind the UniProt entries cited, without tags or fusion partners.
UniProt P18054, whole entry: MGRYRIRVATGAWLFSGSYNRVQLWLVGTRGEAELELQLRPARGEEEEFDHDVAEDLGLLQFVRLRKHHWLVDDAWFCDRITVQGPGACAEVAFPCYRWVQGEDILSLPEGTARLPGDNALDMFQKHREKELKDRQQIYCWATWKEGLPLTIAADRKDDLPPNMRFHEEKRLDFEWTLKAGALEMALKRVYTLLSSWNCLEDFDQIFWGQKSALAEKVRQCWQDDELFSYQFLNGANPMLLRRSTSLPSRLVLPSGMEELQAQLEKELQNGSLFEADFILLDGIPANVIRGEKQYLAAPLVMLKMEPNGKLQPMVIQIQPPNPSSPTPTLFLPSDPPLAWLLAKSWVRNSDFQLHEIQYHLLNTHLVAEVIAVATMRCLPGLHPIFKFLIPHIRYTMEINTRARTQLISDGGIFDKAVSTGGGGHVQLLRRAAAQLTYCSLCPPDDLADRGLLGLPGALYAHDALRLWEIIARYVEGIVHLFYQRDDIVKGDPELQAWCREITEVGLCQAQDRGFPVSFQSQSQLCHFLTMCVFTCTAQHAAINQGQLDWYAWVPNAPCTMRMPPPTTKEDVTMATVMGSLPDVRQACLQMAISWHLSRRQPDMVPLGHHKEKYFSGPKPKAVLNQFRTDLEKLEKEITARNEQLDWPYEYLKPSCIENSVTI
UniProt P12527, whole entry: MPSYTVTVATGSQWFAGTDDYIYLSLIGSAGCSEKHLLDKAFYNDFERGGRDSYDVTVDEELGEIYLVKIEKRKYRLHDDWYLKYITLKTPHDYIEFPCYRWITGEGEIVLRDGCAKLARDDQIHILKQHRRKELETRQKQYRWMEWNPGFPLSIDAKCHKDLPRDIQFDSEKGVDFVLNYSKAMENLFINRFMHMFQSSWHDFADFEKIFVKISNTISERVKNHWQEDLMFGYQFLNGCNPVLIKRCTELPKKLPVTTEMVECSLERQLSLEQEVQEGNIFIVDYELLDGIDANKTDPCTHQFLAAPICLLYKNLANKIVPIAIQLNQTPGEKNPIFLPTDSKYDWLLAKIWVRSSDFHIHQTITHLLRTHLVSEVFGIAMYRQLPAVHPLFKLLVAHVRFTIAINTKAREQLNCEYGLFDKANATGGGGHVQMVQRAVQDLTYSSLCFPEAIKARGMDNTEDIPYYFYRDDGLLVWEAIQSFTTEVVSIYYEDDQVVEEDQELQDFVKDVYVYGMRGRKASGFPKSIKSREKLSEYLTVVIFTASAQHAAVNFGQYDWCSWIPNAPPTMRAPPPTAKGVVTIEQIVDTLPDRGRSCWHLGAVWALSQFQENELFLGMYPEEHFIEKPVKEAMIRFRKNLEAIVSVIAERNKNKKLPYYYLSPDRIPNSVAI
UniProt P12530, whole entry: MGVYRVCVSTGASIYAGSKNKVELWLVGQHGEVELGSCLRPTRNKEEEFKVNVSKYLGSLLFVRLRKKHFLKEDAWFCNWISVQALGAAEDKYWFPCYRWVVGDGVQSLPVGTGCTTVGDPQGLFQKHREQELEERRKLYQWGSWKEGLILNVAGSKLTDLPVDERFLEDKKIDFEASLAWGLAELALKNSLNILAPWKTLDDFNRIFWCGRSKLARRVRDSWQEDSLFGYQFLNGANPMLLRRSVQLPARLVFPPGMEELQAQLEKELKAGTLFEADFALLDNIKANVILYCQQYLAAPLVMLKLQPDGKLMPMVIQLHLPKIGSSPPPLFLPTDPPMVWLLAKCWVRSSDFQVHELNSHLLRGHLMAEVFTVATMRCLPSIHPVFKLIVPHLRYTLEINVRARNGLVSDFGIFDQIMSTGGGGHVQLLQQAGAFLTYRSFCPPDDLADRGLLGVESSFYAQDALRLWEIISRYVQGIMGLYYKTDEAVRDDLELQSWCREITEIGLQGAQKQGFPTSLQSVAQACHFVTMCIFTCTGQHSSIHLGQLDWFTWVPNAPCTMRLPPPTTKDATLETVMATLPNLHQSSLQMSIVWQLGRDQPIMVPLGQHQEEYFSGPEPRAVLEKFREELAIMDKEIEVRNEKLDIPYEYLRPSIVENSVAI
UniProt P16469, whole entry: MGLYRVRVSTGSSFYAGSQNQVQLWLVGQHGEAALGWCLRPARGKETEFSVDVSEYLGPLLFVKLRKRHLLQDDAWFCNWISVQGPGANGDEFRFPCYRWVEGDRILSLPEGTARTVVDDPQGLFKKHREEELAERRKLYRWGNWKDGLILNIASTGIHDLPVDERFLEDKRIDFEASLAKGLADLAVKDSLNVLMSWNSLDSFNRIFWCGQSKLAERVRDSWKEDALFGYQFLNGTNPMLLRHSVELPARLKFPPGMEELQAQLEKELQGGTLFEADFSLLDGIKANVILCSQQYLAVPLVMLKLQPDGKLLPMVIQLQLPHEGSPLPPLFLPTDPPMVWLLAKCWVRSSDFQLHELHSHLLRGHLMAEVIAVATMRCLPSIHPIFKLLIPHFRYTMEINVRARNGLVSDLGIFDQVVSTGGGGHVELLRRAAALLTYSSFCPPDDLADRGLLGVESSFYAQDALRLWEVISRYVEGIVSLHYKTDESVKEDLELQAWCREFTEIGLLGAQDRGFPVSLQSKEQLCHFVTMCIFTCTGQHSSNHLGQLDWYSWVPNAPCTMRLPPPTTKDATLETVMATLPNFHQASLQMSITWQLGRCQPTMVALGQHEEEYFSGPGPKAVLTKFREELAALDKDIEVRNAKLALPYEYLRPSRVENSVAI

Experiments:
[1] = target: 12-LO (type 2, platelets) (Homo sapiens, UniProt P18054); assay: Whole cell 12-HETE formation by human platelets; format: cell-based; conditions: FIG. 7C
Procedure: (§1) Human platelets and leukocytes were purified from buffy coat preparations (NIH Blood Bank) using a standard Ficoll based centrifugation method used in blood banks. Prior to use, cells were washed three times to eliminate contaminating cell types. Cultured rat basophillic leukemia cells (RBL-2H3) were used as a source of 5-lipoxygenase.
(§2) Cells were incubated with arachidonic acid and stimulated with the calcium ionophore A23187. Lipids were extracted and separated by reverse phase HPLC.
(§3) Cell pellets were triturated in DMEM culture media, aliquoted and pre-incubated for 15 minutes with 20 μM arachidonic acid and varying concentrations of cannabidiol and/or 40 μM nordihydroguaiaretic acid (a lipxygenase inhibitor). Platelets and leukocytes were also pre-incubated with 80 μM manoalide (Biomol) to prevent phospholipase A2 activation. Product formation was initiated by addition of 5 μM A23187 and incubation for 10 minutes at 37° C. At the end of the incubation, the reaction was stopped by addition of 15% 1M HCl and 10 ng/ml prostaglandin B2 (internal standard). Lipids were extracted with 1 volume of ethyl ether, which was dried under a stream of nitrogen. Samples were reconstituted in 50% acetonitrile:50% H2O and separated by reverse phase HPLC using a gradient running from 63% acetonitrile: 37% H2O:0.2% acetic acid to 90% acetonitrile (0.2% acetic acid) over 13 minutes.

[2] = system: rat brains (ischemia damage); assay: Middle cerebral artery occlusion, infarct volume and neurological deficit; format: in vivo
[3] = cited from earlier work
[4] = system: 12-LO (type 1, leukocytes); assay: Whole cell 12-HETE formation by human leukocytes; format: cell-based; conditions: FIG. 7B
Procedure: as §1, §2, §3

[5] = system: cultured neurons (NMDAr mediated toxicity); assay: NMDA mediated toxicity in cultured neurons (LDH release); format: cell-based, Wistar rat; conditions: 250 μM glutamate for 10 minutes, LDH after 18 hours
[6] = Cyclic voltametry (oxidation potentials); format: physicochemical
Procedure: To investigate whether cannabinoids protect neurons against glutamate damage by reacting with ROS, the antioxidant properties of cannabidiol and other cannabinoids were assessed. Cyclic voltametry, a procedure that measures the ability of a compound to accept or donate electrons under a variable voltage potential, was used to measure the oxidation potentials of several natural and synthetic cannabinoids. These studies were performed with an EG&G Princeton Applied Research potentiostat/galvanostat (Model 273/PAR 270 software, NJ). The working electrode was a glassy carbon disk with a platinum counter electrode and silver/silver chloride reference. Tetraethylammonium chloride in acetonitrile (0.1 M) was used as an electrolyte. Cyclic voltametry scans were done from +0 to 1.8 V at scan rate of 100 mV per second. The reducing ability of cannabidiol (CBD), THC, HU-211, and BHT were measured in this fashion. Anandamide, a cannabinoid receptor ligand without a cannabinoid like structure, was used as a non-responsive control. Each experiment was repeated twice with essentially the same results.

neurons (ROS toxicity) = assay: t-butyl hydroperoxide induced toxicity in neurons (LDH release); format: cell-based, Wistar rat
Procedure: Primary neuronal cultures were prepared according to the method of Ventra et al. (J. Neurochem. 66:1752-1761, 1996). Fetuses were extracted by Cesarian section from a 17 day pregnant Wistar rat, and the feral brains were placed into phosphate buffered saline. The cortices were then dissected out, cut into small pieces and incubated with papain for nine minutes at 37° C. After this time the tissue was dissociated by passage through a fire polished Pasteur pipette, and the resultant cell suspension separated by centrifugation over a gradient consisting of 10 mg/ml bovine serum albumin and 10 mg/ml ovomucoid (a trypsin inhibitor) in Earls buffered salt solution. The pellet was then re-suspended in high glucose, phenol red free Dulbeco's modified Eagles medium containing 10% fetal bovine serum, 2 mM glutamine, 100 IU penicillin, and 100 μg/ml streptomycin (DMEM). Cells were counted, tested for vitality using the trypan blue exclusion test and seeded onto poly-D-lysine coated 24 multiwell plates. […]
To confirm that cannabinoids act as antioxidants in the intact cell, neurons were also incubated with the oxidant t-butyl hydroperoxide and varying concentrations of cannabidiol (FIG. 5A). […] Cell toxicity was assessed 18-20 hours after insult by measuring lactate dehydrogenase (LDH) release into the culture media. […]

5-LO = 5-LO (Rattus norvegicus, UniProt P12527); assay: Whole cell lipoxygenase activity, 5-LO in RBL-2H3 cells; format: cell-based; conditions: read-out: EC50 of 5-LO inhibition; cultured RBL-2H3 cells, arachidonic acid, A23187
Procedure: as §1, §2, §3

[7] = Iron catalyzed dihydrorhodamine oxidation (Fenton reaction); conditions: 50 μM dihydrorhodamine, 300 μM t-butyl hydroperoxide, 0.5 μM iron, 5 minutes
NMDA receptor = conditions: cited from earlier work
rabbit 15-LO = rabbit 15-LO (Oryctolagus cuniculus, UniProt P12530); assay: In vitro lipoxygenase enzyme assay, 15-LO
porcine 12-LO = porcine 12-LO (Sus scrofa, UniProt P16469); assay: In vitro lipoxygenase enzyme assay, 12-LO; conditions: semi-purified porcine enzyme, linoleic acid substrate
[8] = system: neurons (AMPA/kainate receptor mediated toxicity); assay: AMPA and kainate receptor mediated toxicity in cultured neurons (LDH release); format: cell-based, Wistar rat

C=C(C)[C@@H]1CCC(C)=C[C@H]1c1c(O)cc(CCCCC)cc1O
effect on 12-LO (production of 12-HETE), platelets [1]: no effect | Volume of Infarct, Mean ([2]; 20 mg/kg ip 1 h before ischemia plus 10 mg/kg ip 8 hours later, mean of 7 animals, p = 0.016 vs control): 55.3 mm3 | Behavioral Deficit Score, Mean ([2]; same dosing, mean of 7 animals, p = 0.015 vs control): 2.0 | infarct size versus control ([2]; treated versus vehicle): approximately halved | neurological status of the animal ([2]; treated versus vehicle): substantial improvement | psychoactive effect ([3]; Pharm. Rev. 38:21-43, 1986): devoid of psychoactive effect | toxicity following chronic administration to healthy volunteers ([3]; chronic administration, even large acute doses of 700 mg/day): No signs of toxicity or serious side effects | effect on 12-LO (production of 12-HETE), leukocytes [4]: no effect | maximum protection against NMDAr mediated neurotoxicity [5]: 88±9% | EC50 ([5]; read-out: EC50 of prevention of NMDAr mediated neurotoxicity, listed as cannabidiol): 2 to 4 µM and 3.5 µM | oxidation profile by cyclic voltametry ([6]; data not shown): oxidation profiles similar to cannabidiol and THC | oxidation (electron donation) potential by cyclic voltametry ([6]; scan +0 to 1.8 V, 100 mV per second, acetonitrile): donated electrons at a similar potential as the antioxidant BHT | maximum protection against ROS toxicity (neurons (ROS toxicity); LDH 18-20 hours after insult): 88±9% | EC50 (neurons (ROS toxicity); read-out: EC50 of protection against ROS toxicity, LDH 18-20 hours after insult): 6 µM | EC50 (5-LO): 1.92 µM | prevention of dihydrorhodamine oxidation [7]: prevented dihydrorhodamine oxidation | activity at the NMDA receptor (NMDA receptor): inactive | mode of 15-LO inhibition (rabbit 15-LO; FIG. 6B): competitive inhibitor | EC50 (rabbit 15-LO; read-out: EC50 of 15-LO inhibition, semi-purified enzyme, linoleic acid substrate, absorption at 234 nm): 0.598 µM | effect on 12-LO enzyme (porcine 12-LO): no effect | neuroprotection in presence of cannabinoid receptor antagonist SR-141716A ([8]; 5 μM compound plus SR-141716A (FIG. 2B)): Neither THC nor cannabidiol neuroprotection was affected | neuroprotection in AMPA/kainate receptor toxicity assays ([8]; 100 μM Glu, 5 μM compound (FIG. 2A)): similarly protective | maximum protection against AMPA/kainate mediated neurotoxicity ([8]; 100 μM glutamate, 50 μM cyclothiazide, 500 nM MK-801, 18-20 hours): 80±17% | attenuation of glutamate toxicity, comparison of antioxidants ([8]; 100 μM glutamate, equimolar 5 μM antioxidant (FIG. 5B)): significantly more protective than either α-tocopherol or ascorbate | protection with AMPA ligand fluorowillardiine or kainate ligand 4-methyl-glutamate ([8]; fluorowillardiine 1.5 μM or 4-methyl glutamate 10 μM, data not shown): Comparable results | EC50 ([8]; read-out: EC50 of prevention of AMPA/kainate mediated neurotoxicity, 100 μM glutamate, 50 μM cyclothiazide, 500 nM MK-801, 18-20 hours): 2 to 4 µM and 3.3 µM

Several values for one entry are separate records, joined by “and”; a condition that tells them apart may be missing. Unless stated, no cut-off for active and inactive is given here. Identical values can stand only once.
